The values below come from paper PMC3766633 (Biomaterials, 2013).

The nature of the data set: Precipitation / aggregation on mixing with LMWP during coupling. The class given is physicochemical. The settings on record: mixing with LMWP or LMWP-SH during the coupling process, observation.

Turning to “SPDP-activated insulin: insulin activated with N-succinimidyl 3-(2-pyridyldithio) propionate”, the “appearance on mixing / reaction with LMWP (precipitation of insoluble complexes)” value is listed as “significant precipitation”.
